Patent US20260209222A1, “CBL-B MODULATORS AND USES THEREOF” (Nimbus Clio, Inc., priority 2022, published 2026)

The chains behind the UniProt entries cited, without tags or fusion partners. Residues count along the entry.
UniProt Q13191, 36-427 limits assumed: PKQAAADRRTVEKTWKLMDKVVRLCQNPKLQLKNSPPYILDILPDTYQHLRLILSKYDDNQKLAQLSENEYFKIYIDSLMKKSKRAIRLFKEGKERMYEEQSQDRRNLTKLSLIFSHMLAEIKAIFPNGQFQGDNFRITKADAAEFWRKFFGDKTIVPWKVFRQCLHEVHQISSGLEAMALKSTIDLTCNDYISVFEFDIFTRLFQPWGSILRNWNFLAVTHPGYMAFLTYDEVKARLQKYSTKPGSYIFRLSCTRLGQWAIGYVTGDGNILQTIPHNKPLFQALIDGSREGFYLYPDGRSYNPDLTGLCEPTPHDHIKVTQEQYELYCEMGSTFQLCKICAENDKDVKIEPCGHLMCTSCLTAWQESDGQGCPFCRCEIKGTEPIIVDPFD

Tests used:
[1] = biological target: Recombinant human Cbl-b (aa 36-427) (Homo sapiens, UniProt Q13191); experiment: Cbl-b Biochemical Assay (TR-FRET); conditions: read-out: TR-FRET Cbl-b IC50; 6 nM Cbl-b, 1-2.5 nM Src-Zap70, 0.5 mM ATP; HTRF signal at 520 nm
Method: Cbl-b Biochemical Assay (TR-FRET)
Recombinant human Cbl-b (aa 36-427) was expressed in E coli, purified and biotinylated in vitro. The protein was diluted to 12 nM in freshly prepared assay buffer consisting of 50 mM HEPES, pH 7.0, 100 mM NaCl, 5 mM MgCl2, 0.01% Triton-X 100, 0.01% BSA and 1 mM DTT. Recombinant human Src (aa 254-536)-GSSGSS-Zap-70 (aa 281-297) fusion protein was expressed in E coli and purified. Protein was diluted in assay buffer to 2-5 nM and supplemented with ATP to 1 mM. Fluorescein-BODIPY labeled UBED2D(C85K)-Ub was prepared by conjugating ubiquitin (Ub) labeled at its N-terminus with Fluorescein-BODIPY maleimide (ThermoFisher Catalog no B10250) to E coli expressed and purified UBED2D(C85K) [see Dou et al Nature Structural and Molecular Biology 8: 982-987, 2013]. Recombinant human UBE2D2(C85K) was expressed in E coli, purified and ubiquitinated and Bodipy labelled in vitro. Protein was diluted to 200 nM in assay buffer without MgCl2 (or Cisbio PPI buffer). Streptavidin-Terbium was added to 2 nM and EDTA to 10 mM, to provide a binding assay mix. […] The enzyme reaction was terminated and the binding reaction was initiated by adding 10p of binding assay mix to all wells and incubating the plate at RT for 60 min prior to assay read. […] The HTRF assay signal was measured at 520 nm on an Envision plate reader, with reference signal at 485 or 620 nm. […]

[2] = system: Recombinant human c-Cbl (aa 47-435); experiment: c-Cbl Biochemical Assay (TR-FRET); conditions: ratio from the Cbl-b and c-Cbl TR-FRET biochemical assays
Method: c-Cbl Biochemical Assay (TR-FRET)
Recombinant human c-Cbl (aa 47-435) was expressed in E coli, purified and biotinylated in vitro. The protein was diluted to 12 nM in freshly prepared assay buffer consisting of 50 mM HEPES, pH 7.0, 100 mM NaCl, 5 mM MgCl2, 0.01% Triton-X 100, 0.01% BSA and 1 mM DTT. Recombinant human Src (aa 254-536)-GSSGSS-Zap-70 (aa 281-297) fusion protein was expressed in E coli and purified. Protein was diluted in assay buffer to 5-20 nM and ATP was added to 1 mM. Recombinant human UBE2D2(C85K) was expressed in E coli, purified and ubiquitinated and Bodipy labelled in vitro. Protein was diluted to 200 nM in assay buffer without MgCl2 (or Cisbio PPI buffer). Streptavidin-Terbium was added to 2 nM and EDTA to 10 mM, to provide a binding assay mix. Compounds were dissolved in DMSO and diluted to prepare a ten-point half log dilution series. 100 nl of each compound concentration was dispensed in duplicate in a 384 well black assay plate using acoustic dispensing. […] The enzyme reaction was terminated and the binding reaction was initiated by adding 10p of binding assay mix to all wells and incubating the plate at RT for 60 min prior to assay read. […] The HTRF assay signal was measured at 520 nm on an Envision plate reader, with reference signal at 485 or 620 nm. […]

Cn1cnnc1-c1ccccc1-c1cc(NCCC#N)nc(-c2nc3cc(CNCC(C)(C)O)cc(C(F)(F)F)c3o2)c1
IC50 [1]: 200 to 5000 nM
Cbl-b/c-Cbl Selectivity [2]: 6
